Here are results for 1 substance from patent US20200016207A1, “TRANSGENIC c-MPL PROVIDES LIGAND-DEPENDENT CO-STIMULATION AND CYTOKINE SIGNALS TO TCR-ENGINEERED T CELLS” (Baylor College of Medicine, priority 2017, published 2020).

Common to all, as to assay type: cell-based, human
For assay [1], the system named is U266 myeloma cells. Kind of assay: Co-culture of TCR+c-MPL+ T cells with U266 myeloma cells. Conditions: rhTPO 50 ng/ml, IL2 25 U/ml, n=3. The method, then: (§1) Cells were stained ith antibodies and analyzed by flow cytometry. Cells were stained with FITC-, phycoerythrin- (PE-), peridinin chlorophyll protein-(PerCP-), or allophycocyanin-conjugated (APC-conjugated) antibodies (Abs) against CD3, CD4, CD8, CD110 (c-MPL), murine TCR constant region (mCβ, ebioscience), CD19, or CD138. Cell viability was assessed by 7-AAD staining. T cells and tumor cell populations from co-culture assays were quantified by adding CountBright Beads (Invitrogen) to the analysis. T cell memory marker expression on CD8+ T cells re-covered from co-cultures was analyzed by staining cells with FITC-, PE-, ECD-, PerCP-, APC-, APC-AF750, or V450-conjugated Abs against CD45RO, CD45RA, CD62L, CCR7, CD110, mCβ, CD19, and 7AAD. Intracellular staining for phosphoproteins pSTAT3 and pSTAT5 was performed with PE- and Pacific Blue-conjugated Abs and Phosflow reagents (BD). To assess cell proliferation, cells were labeled with Carboxyfluorescein succinimidyl ester (CFSE, ThermoFisher) and analyzed after 7 days of culture. […]
(§2) BV173 or U266B1 cells and T cells were co-cultured in up to eight replicate wells at various E:T ratios in CTL media with no cytokines, rhTPO (5 ng/mL or 50 ng/mL), or EP (0.1 μg/mL). […] Every 3-4 days of co-culture, cells were harvested from a replicate culture well and analyzed by FACS for tumor- and T cell counts, as well as T cell memory marker phenotype. […]

Assay [2] deals with TCR+ T cells. Kind of assay: Antigen-specific expansion with survivin peptide-pulsed aAPCs, TCR+ T cells. Conditions: IL-2 50 U/mL; rhTPO up to 500 ng/ml. The procedure:
aAPCs (described above) were pulsed with the LMLGEFLKL survivin peptide (Genemed Synthesis), irradiated at 100 cGy, and used to stimulate T cells at an E:T ratio of 4:1 with IL-2 (50 U/mL) or rhTPO (5 ng/mL, 50 ng/mL, or 500 ng/mL). At the end of the first stimulation (7 days), cells were collected, counted, phenotyped and re-stimulated with fresh peptide-pulsed aAPCs under the same conditions. Fold expansion was recorded at the end of the second stimulation.

Assay [3] concerns BV173 leukemia cells. Kind of assay: Serial (sequential) co-culture with BV173 leukemia cells. Conditions: E:T 1:5, versus no cytokines. The method, then:
as §1, §2

Assay [4] concerns BV173 leukemia cells. Kind of assay: Co-culture of TCR+c-MPL+ T cells with BV173 leukemia cells. Conditions: rhTPO 50 ng/ml, IL2 25 U/ml. The procedure:
as §1, §2

With “IL2: interleukin-2 cytokine used as control culture condition”, the “residual U266 cells” value in assay [1] (day 5, E:T 1:1, TCR+c-MPL+ T cells, noCK 43.3±1.1×10^5) was 3.13±0.45×10^5. In addition, the “T cell count in U266 co-culture” value in assay [1] (day 5, E:T 1:1, noCK 1.84±0.31×10^5) is listed as 25.2±7.2×10^5. Besides, the “antigen-specific expansion of TCR+ T cells” value in assay [2] is recorded as “expanded”. The “T cell expansion in serial co-culture” value in assay [3] is “significantly enhanced”. In assay [4] (day 5, E:T 1:3, TCR+c-MPL+ T cells, noCK 10.3±7.9×10^3), the “residual BV173 cells” value is recorded as 3.52±5.27×10^3. In addition, the “T cell count in BV173 co-culture” value in assay [4] (day 5, E:T 1:3, noCK 16.7±8.1×10^4) is 56.2±25.2×10^4.
